This experiment addresses D(1A) dopamine receptor (Mus musculus, UniProt Q61616). Kind of experiment: Displacement of [3H]SCH23390 from dopamine D1 receptor in mouse Ltk- fibroblast cells. The format is cell-based. On the technique in general: Loss of bound radioactivity is the signal in a displacement assay; it reports binding, not function.

Protein sequences, listed by entry. Tags and fused reporters are not part of them.
UniProt Q61616, whole entry: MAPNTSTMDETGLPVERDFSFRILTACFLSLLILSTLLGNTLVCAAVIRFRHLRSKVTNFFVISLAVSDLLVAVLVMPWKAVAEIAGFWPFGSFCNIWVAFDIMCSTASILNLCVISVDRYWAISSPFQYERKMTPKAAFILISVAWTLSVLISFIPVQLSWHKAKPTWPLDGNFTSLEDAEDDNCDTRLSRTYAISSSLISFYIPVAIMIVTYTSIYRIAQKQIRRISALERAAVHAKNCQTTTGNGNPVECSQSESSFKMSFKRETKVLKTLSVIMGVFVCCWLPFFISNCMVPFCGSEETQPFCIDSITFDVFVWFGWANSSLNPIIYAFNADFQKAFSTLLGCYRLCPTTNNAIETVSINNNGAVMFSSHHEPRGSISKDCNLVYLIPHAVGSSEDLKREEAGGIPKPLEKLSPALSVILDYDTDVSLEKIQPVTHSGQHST

As a reminder, the Ki is the equilibrium dissociation constant of an inhibitor or competing ligand from its target. Lower therefore signals tighter binding.

As for `CN1CCc2cccc3c2[C@H]1Cc1ccc(O)c(O)c1-3` [APOMORPHINE], the inhibition constant (Ki) is 0.101 µM.

For the origin of these results see ChEMBL document CHEMBL1149860, “Synthesis and neuropharmacological characterization of 2-O-substituted apomorphines” (Bioorg Med Chem, 2008).
